Among the data in US10611777B2, “Imidazopyridazine compounds and their use” (HUTCHISON MEDIPHARMA LIMITED, priority 2014, dated 2020) are IC50 values, retold here.

By UniProt entry, the sequences of proteins in these tests, tags left out. Where a name states a change or a piece, a line headed by the entry shows the natural chain unless it says otherwise.
UniProt P48736, whole entry, species assumed: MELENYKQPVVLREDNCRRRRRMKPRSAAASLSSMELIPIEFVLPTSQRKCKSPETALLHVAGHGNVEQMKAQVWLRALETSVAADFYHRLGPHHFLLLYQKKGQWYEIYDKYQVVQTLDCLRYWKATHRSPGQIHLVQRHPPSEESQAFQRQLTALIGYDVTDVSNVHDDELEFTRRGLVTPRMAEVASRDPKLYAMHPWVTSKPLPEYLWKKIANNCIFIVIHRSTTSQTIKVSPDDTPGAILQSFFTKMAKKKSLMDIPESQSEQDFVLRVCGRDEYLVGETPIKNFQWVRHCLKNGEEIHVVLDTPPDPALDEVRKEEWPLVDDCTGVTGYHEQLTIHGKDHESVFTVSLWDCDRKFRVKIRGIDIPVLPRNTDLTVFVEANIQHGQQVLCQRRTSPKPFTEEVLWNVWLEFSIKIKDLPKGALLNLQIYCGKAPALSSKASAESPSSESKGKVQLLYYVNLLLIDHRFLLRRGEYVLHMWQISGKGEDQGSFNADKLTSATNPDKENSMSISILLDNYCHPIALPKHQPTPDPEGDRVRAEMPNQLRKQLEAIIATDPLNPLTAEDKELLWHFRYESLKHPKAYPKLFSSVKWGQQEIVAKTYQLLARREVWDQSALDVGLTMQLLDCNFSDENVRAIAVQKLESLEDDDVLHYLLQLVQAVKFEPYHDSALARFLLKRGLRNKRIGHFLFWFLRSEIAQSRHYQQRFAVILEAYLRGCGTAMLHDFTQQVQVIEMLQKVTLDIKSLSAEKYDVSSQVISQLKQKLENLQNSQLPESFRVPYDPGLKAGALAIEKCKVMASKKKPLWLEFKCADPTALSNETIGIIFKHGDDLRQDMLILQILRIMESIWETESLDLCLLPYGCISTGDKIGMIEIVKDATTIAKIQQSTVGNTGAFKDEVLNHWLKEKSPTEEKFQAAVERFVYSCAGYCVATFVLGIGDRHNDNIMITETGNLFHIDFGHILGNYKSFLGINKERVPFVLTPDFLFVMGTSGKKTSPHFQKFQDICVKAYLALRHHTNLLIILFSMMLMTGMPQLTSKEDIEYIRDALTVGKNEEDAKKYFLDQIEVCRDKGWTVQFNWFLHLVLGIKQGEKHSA
UniProt O00329, whole entry, species assumed: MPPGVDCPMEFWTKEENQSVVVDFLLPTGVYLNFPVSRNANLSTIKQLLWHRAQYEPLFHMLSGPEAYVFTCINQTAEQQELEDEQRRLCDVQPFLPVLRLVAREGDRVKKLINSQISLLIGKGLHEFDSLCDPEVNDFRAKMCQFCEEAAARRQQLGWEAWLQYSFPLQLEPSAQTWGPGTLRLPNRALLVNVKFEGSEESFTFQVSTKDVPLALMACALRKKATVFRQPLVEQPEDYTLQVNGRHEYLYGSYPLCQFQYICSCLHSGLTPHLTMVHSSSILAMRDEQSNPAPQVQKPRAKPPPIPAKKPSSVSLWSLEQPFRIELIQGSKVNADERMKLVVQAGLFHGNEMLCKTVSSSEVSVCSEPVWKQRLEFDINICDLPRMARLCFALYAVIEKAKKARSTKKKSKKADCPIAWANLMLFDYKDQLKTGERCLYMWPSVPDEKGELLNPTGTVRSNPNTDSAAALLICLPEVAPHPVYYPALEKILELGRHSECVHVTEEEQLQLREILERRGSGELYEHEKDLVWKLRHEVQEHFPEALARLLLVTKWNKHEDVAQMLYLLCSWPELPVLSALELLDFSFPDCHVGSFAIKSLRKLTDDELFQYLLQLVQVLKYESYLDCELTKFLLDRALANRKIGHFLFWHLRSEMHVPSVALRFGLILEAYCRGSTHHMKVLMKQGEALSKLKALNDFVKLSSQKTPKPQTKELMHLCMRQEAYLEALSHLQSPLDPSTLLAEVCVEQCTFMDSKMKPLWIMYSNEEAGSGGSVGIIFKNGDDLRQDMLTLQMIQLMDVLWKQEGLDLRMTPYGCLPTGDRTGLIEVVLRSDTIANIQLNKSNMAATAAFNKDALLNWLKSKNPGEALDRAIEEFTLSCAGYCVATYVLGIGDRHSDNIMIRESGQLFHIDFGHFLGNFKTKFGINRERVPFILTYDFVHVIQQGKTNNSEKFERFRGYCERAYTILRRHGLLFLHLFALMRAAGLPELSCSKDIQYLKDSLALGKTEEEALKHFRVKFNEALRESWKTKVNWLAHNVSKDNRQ

Molecules are shown by their SMILES.

Experiment [1] deals with PI3Kδ signaling in basophils from human whole blood. The experiment can be described thus: Inhibition of PI3Kδ signaling in basophils from human whole blood. The experiment is classed as cell-based. Conditions: anti-IgE stimulated, CD63.
For the next experiment, the target named is PI3K-γ (p110γ) (Homo sapiens (Human), UniProt P48736). The experiment can be described thus: Fluorescent determination of PI3K enzyme activity (Transcreener KINASE Assay), PI3K-γ.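 Further: p110γ enzyme reaction for 80 min at room temperature, ADP formed measured by far-red competitive fluorescence polarization immunoassay, inhibition relative to wells with 2% DMSO only.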 The experiment is classed as biochemical.
In another experiment the target is PI3K-δ (p110δ/p85α) (Homo sapiens (Human), UniProt O00329). The experiment can be described thus: Fluorescent determination of PI3K enzyme activity (Transcreener KINASE Assay), PI3K-δ. The experiment is classed as biochemical.

What is called IC50 is the concentration at which inhibition is half-maximal. Lower therefore signals higher potency. Take `C[C@H](Nc1ncnc(N)c1C#N)c1cc2ncc(Cl)n2nc1-c1ccccc1` [Compound 4, (S)-4-amino-6-((1-(3-chloro-6-phenylimidazo[1,2-b]pyridazin-7-yl)ethyl)amino)pyrimidine-5-carbonitrile]: the IC50 in experiment [1] amounted to 1 nM. In the case of `C[C@H](Nc1ncnc(N)c1C#N)c1cc2ncc(F)n2nc1-c1ccccc1` [Compound 78, (S)-4-amino-6-((1-(3-fluoro-6-phenylimidazo[1,2-b]pyridazin-7-yl)ethyl)amino)pyrimidine-5-carbonitrile], on PI3K-γ (p110γ), the IC50 amounted to 712 nM. Turning to `[2H]c1c([2H])c([2H])c(-c2nn3c(Cl)cnc3cc2[C@H](C)Nc2ncnc(N)c2C#N)c([2H])c1[2H]` [Compound 80], the IC50 against PI3K-δ (p110δ/p85α) stood at 0.5 nM.
